The text below walks through data of patent publication US20230226034A1, “PROPHYLACTIC OR THERAPEUTIC AGENT FOR PHOTODERMATOSIS” (MITSUBISHI TANABE PHARMA CORPORATION, priority 2020, published 2023).

Chains of the proteins cited; added tags and fusions are not shown. Lines headed by an entry give the natural chain unless they say otherwise; changes in a name come on top.
UniProt Q01727: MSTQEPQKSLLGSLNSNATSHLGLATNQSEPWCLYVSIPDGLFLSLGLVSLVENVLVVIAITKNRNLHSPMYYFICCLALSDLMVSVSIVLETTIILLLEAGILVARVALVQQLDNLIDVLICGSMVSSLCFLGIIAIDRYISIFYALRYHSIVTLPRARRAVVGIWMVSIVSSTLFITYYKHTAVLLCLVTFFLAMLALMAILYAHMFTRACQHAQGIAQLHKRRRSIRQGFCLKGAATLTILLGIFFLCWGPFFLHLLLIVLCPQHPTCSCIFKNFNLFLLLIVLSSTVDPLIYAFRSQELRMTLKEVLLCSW

In the assay the target is mouse MC1R (Mus musculus, UniProt Q01727). Particulars: read-out: EC50 (nmol/L) mMC1R; cAMP in HEK293 cells stably expressing mouse MC1R; one-half of Emax of αMSH.

As for αMSH [reference compound], the EC50 came out at 3.17 nmol/L.
